# Results as given in patent US20120058499.
# Biological target: Ub(1-76)-aminoluciferin
protein,measurement,value
USP7 (ubiquitin specific peptidase 7) (protein) MNHQQQQQQQKAGEQQLSEPEDMEMEAGDTDDPPRITQNPVINGNVALSDGHNTAEEDMEDDTSWRSEATFQFTVERFSRLSESVLSPPCFVRNLPWKIMVMPRFYPDRPHQKSVGFFLQCNAESDSTSWSCHAQAVLKIINYRDDEKSFSRRISHLFFHKENDWGFSNFMAWSEVTDPEKGFIDDDKVTFEVFVQADAPHGVAWDSKKHTGYVGLKNQGATCYMNSLLQTLFFTNQLRKAVYMMPTEGDDSSKSVPLALQRVFYELQHSDKPVGTKKLTKSFGWETLDSFMQHDVQELCRVLLDNVENKMKGTCVEGTIPKLFRGKMVSYIQCKEVDYRSDRREDYYDIQLSIKGKKNIFESFVDYVAVEQLDGDNKYDAGEHGLQEAEKGVKFLTLPPVLHLQLMRFMYDPQTDQNIKINDRFEFPEQLPLDEFLQKTDPKDPANYILHAVLVHSGDNHGGHYVVYLNPKGDGKWCKFDDDVVSRCTKEEAIEHNYGGHDDDLSVRHCTNAYMLVYIRESKLSEVLQAVTDHDIPQQLVERLQEEKRIEAQKRKERQEAHLYMQVQIVAEDQFCGHQGNDMYDEEKVKYTVFKVLKNSSLAEFVQSLSQTMGFPQDQIRLWPMQARSNGTKRPAMLDNEADGNKTMIELSDNENPWTIFLETVDPELAASGATLPKFDKDHDVMLFLKMYDPKTRSLNYCGHIYTPISCKIRDLLPVMCDRAGFIQDTSLILYEEVKPNLTERIQDYDVSLDKALDELMDGDIIVFQKDDPENDNSELPTAKEYFRDLYHRVDVIFCDKTIPNDPGFVVTLSNRMNYFQVAKTVAQRLNTDPMLLQFFKSQGYRDGPGNPLRHNYEGTLRDLLQFFKPRQPKKLYYQQLKMKITDFENRRSFKCIWLNSQFREEEITLYPDKHGCVRDLLEECKKAVELGEKASGKLRLLEIVSYKIIGVHQEDELLECLSPATSRTFRIEEIPLDQVDIDKENEMLVTVAHFHKEVFGTFGIPFLLRIHQGEHFREVMKRIQSLLDIQEKEFEKFKFAIVMMGRHQYINEDEYEVNLKDFEPQPGNMSHPRPWLGLDHFNKAPKRSRYTYLEKAIKIHN,"S/B against the S/B for both Ub-AMC and Ub-Rhodamine110, enzyme 0.5 nM",increased by ~100-fold relative to the S/B for both Ub-AMC and Ub-Rhodamine110
